What was measured:
[1] = in vivo
Description: Since spadin exerted efficient effects after i.p. or i.v. administration, we evaluated its ability to pass through the blood-brain barrier. ^125I-labelled spadin (1 nmol of spadin plus 2×10^6 cpm ^125I-spadin) was i.v. injected and animals were sacrificed 30 min following injection. The brains were rapidly removed and homogenized. The radioactivity recovered in the brain was acid-extracted, quantified, and analyzed by HPLC. […] The concentration of spadin recovered into the brain was estimated to stand around 10 nM, a concentration that corresponds to the affinity of spadin for TREK-1 and sufficient to be active on TREK-1 channel activity. This value was also in the same range of the IC50 determined by electrophysiological measurements (Figure 3C).

TREK-1 [2] = target: T1, TREK-1 (Mus musculus, UniProt P97438); assay: Whole-cell patch-clamp, TREK-1 transfected COS-7 cells; assay type: cell-based; parameters: GFP; expressed in transfected cells; host or cells: COS-7 cells, DEAE-dextran transfection; settings: 100 nM spadin, 0 mV, 10 µM aa, K+ blockers; mean ± SD, n = 16
T1 sequence (P97438 1-426): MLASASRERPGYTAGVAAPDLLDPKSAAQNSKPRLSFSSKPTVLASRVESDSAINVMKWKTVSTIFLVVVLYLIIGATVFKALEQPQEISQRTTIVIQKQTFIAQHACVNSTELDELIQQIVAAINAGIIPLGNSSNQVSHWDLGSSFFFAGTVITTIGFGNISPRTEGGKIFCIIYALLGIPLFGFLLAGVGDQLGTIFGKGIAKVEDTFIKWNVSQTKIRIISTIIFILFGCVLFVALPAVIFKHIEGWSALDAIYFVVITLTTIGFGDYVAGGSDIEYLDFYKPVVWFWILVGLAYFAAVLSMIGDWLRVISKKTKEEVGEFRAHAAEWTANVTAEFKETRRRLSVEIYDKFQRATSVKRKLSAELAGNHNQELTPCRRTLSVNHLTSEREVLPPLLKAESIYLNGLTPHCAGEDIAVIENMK
Description: All electrophysiological experiments were done on COS-7 cells seeded at a density of 20,000 cells/35-mm dish 24 h before transfection. Cells were transfected by the classical DEAE-dextran method with TREK-1-GFP plasmids (0.1 µg/µL). Cells were visualized 48–72 h after transfection using fluorescence.
The whole-cell patch-clamp technique was used to evaluate TREK-1 potassium channel current by using a RK 400 patch-clamp amplifier (Axon Instruments, USA), as previously described. Currents were lowpass filtered at 3 kHz, digitized at 10 kHz using a 12-bit analog-to-digital converter. […] The bath solution contained (in mM) 150 NaCl, 5 KCl, 3 MgCl2, 1 CaCl2, and 10 HEPES, adjusted to pH 7.4 with NaOH; the patch pipette solution contained (in mM) 155 KCl, 3 MgCl2, 5 EGTA, and 10 HEPES, adjusted to pH 7.2 with KOH. Cells were clamped at −80 mV and voltage changes were either applied by ramp (from −100 to 50 mV, 1 s in duration) or by step (from −100 to 40 mV, 1.5 s in duration). Cells were continuously superfused with a microperfusion system. The pipette capacitance was not subtracted from total membrane capacitance and there was no leak subtraction. […]
Pclamp software was used to analyze currents recorded in the whole-cell mode measured at 0 mV. Results are expressed as means ± SD. […]

TREK-1 [3] = target: T1, TREK-1; assay: Whole-cell patch-clamp, native currents in β-TC3 pancreatic cell line; assay type: cell-based; parameters: expressed in transfected cells; host or cells: COS-7 cells, DEAE-dextran transfection; settings: 1 µM spadin, aa 10 µM, K+ blockers; read-out: inhibition of native current
Description: Native currents elicited by these cells were recorded in the whole-cell configuration of the patch-clamp technique (as described for COS-7 cells) and in the presence of K^+ blockers.

Structure (SMILES): CC[C@H](C)[C@H](NC(=O)[C@@H]1CCCN1C(=O)CNC(=O)[C@H](CO)NC(=O)[C@H](Cc1c[nH]c2ccccc12)NC(=O)[C@H](CCCNC(=N)N)NC(=O)[C@@H]1CCCN1C(=O)[C@H](CC(C)C)NC(=O)[C@@H]1CCCN1C(=O)[C@H](C)NC(=O)[C@@H](N)Cc1ccc(O)cc1)C(=O)NCC(=O)N[C@H](C(=O)N[C@@H](CO)C(=O)N[C@@H](Cc1c[nH]c2ccccc12)C(=O)NCC(=O)N[C@@H](CC(C)C)C(=O)N[C@@H](CCCNC(=N)N)C(=O)O)C(C)C [spadin]
- amount recovered in the brain after i.p. vs i.v. [1]: Identical amounts
- block of aa stimulated TREK-1 current (TREK-1 [2]): 63%±12%
- inhibition at 1 µM (TREK-1 [3]): 36%

— PMC2854129, “Spadin, a Sortilin-Derived Peptide, Targeting Rodent TREK-1 Channels: A New Concept in the Antidepressant Drug Design” (PLoS Biology, 2010)
